System: Lys251 alpha-2AAR

CNC[C@H](O)c1ccc(O)c(O)c1 [epinephrine]
maximal extent of accumulation of inositol phosphates, Lys251 versus Asn251: not found to be different
